This is an account of results in patent US20150051171A1, “TETRAZOLINONE COMPOUNDS AND ITS USE AS PESTICIDES” (SUMITOMO CHEMICAL COMPANY, LIMITED, priority 2012, published 2015).

The test system of experiment [1] is rice blast fungi (Magnaporthe grisea). Format: in vivo. The note with it: 50 ppm foliar spray, rice (cv; Nipponbare), 6 days in contact with infected seedlings.
The subject of experiment [2] is wheat rust fungi (Puccinia recondita). Put plainly: Wheat rust control on wheat, foliar spray before inoculation (Test Examples 4-6). It is filed as in vivo. Particulars: 50 ppm foliar spray, wheat (cv; Shirogane), inoculated 5 days after spraying.

As to `C/C=C/c1cccc(-n2nnn(C)c2=O)c1COc1ccn(-c2ccc(Cl)cc2)n1` [Present compound 35, 1-(2-{[1-(4-chlorophenyl)-1H-pyrazole-3-yl]oxymethyl}-3-(1-propenyl)phenyl)-4-methyl-1,4-dihydrotetrazole-5-one], the “lesion area compared to the lesion area in untreated plants” value is not above 30% in experiment [1] and not above 300 in experiment [2].
